This note sets out measurements from publication PMC4741518, “Adaptive Remodeling of the Bacterial Proteome by Specific Ribosomal Modification Regulates Pseudomonas Infection and Niche Colonisation” (PLoS Genetics, 2016).

The subject of this data set is Nc1ncnc2c1ncn2[C@@H]1O[C@H](COP(=O)(O)OP(=O)(O)OP(=O)(O)O)[C@@H](O)[C@H]1O. As to the kind of experiment: purified protein. The conditions noted are these: RimK alone, no RpsF, no glutamate, 2 mM MgCl2, 10 mM KCl, pH 8.0, Hill equation fit.

As usually defined, the Km is the concentration of substrate that gives half-maximal velocity.

On to “RimKPf (SBW25 RimK) (Pseudomonas [fluorescens] SBW25)”, for which the Km was 370 ± 130 µM.
